Test results published in US20080015214A1 (priority 2005, published 2008).

Protein sequences, listed by entry. Tags and fused reporters are not part of them. Lines headed by an entry give the natural chain unless they say otherwise; changes in a name come on top.
UniProt P41145: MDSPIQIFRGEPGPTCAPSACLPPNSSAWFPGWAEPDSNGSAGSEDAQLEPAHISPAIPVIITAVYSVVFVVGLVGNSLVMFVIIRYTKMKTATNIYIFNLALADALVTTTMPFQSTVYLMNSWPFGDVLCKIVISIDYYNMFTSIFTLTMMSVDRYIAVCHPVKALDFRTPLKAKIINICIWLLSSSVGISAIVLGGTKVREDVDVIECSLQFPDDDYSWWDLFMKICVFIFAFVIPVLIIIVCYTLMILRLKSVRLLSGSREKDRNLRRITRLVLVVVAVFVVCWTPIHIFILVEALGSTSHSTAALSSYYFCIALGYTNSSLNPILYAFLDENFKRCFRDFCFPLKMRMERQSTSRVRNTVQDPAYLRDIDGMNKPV
UniProt P41146: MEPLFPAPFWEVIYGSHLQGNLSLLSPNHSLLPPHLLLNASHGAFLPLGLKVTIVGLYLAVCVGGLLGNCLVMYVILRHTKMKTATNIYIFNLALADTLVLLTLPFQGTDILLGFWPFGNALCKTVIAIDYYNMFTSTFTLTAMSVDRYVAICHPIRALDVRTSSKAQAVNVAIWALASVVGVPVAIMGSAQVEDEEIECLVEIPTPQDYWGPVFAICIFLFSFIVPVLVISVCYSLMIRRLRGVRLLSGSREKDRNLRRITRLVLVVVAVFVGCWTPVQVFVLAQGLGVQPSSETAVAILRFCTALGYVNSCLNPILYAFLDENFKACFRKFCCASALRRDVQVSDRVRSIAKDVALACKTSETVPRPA
UniProt P35372, whole entry, looked up: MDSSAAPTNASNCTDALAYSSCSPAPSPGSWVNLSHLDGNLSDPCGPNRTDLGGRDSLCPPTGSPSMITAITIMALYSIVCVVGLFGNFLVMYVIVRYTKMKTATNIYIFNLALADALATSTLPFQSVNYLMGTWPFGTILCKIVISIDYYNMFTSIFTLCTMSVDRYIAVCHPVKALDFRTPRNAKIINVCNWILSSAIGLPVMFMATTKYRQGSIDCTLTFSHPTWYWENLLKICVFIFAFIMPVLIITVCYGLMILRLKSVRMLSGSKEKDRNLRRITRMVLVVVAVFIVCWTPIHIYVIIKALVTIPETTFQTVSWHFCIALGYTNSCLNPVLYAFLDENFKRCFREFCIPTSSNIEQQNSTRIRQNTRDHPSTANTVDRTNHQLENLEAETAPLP

Assays:
[1] = molecular target: kappa (κ) opioid receptor (Homo sapiens, UniProt P41145); conditions: read-out: Opioid Receptor IC50 Kappa; 2C2 cell line membrane, U69593-H3 ligand
[2] = molecular target: human nociceptin receptor (ORL-1) (Homo sapiens, UniProt P41146); experiment: Nociceptin receptor binding assay (125I-Tyr14-nociceptin, HEK293 cell membranes); conditions: read-out: ORL-1 IC50, inhibition of 0.5 nM 125I-Tyr14-nociceptin binding
mu (μ) opioid receptor = mu (μ) opioid receptor (Homo sapiens, UniProt P35372); conditions: read-out: Opioid Receptor IC50 Mu; 1D4 cell line membrane, Damgo-H3 ligand
[3] = molecular target: delta (δ) opioid receptor (Homo sapiens, UniProt P41143); conditions: read-out: Opioid Receptor IC50 Delta; 2D4 cell line membrane, DPDPE-H3 ligand
ORL-1 receptor = ORL-1 receptor (Homo sapiens, UniProt P41146); experiment: ORL-1 calcium flux functional assay (HEK-293 cells overexpressing ORL-1 and Gqi5, FLIPR384); format: cell-based; conditions: read-out: ORL-1 Functional Agonist EC50; initial calcium signal after addition of test compound, HEK-293 ORL-1/Gqi5 cells

| Compound | IC50 [1] [nM] | IC50 [2] [nM] | IC50 (mu (μ) opioid receptor) [nM] | IC50 [3] [nM] | EC50 (ORL-1 receptor) [nM] |
| --- | --- | --- | --- | --- | --- |
| c1ccc2c(CN3CCC(c4c[nH]c5ncccc45)CC3)cccc2c1 [Cpd 33, 3-(1-naphthalen-1-ylmethyl-piperidin-4-yl)-1H-pyrrolo[2,3-b]pyridine] | 711 |  |  |  |  |
| c1cc2c3c(cccc3c1)C(N1CCC(c3cn(CCOC4CCCCO4)c4ncccc34)CC1)C2 (stereo not drawn) |  | 551 | 1020 |  |  |
| Cc1[nH]c2ccc(Cl)cc2c1C1CCN(CC2CCCCCCC2)CC1 | 332 | 712 | 1360 | 4180 |  |
| CCn1cc(C2=CCN(C3Cc4cccc5cccc3c45)CC2)c2ccc(F)cc21 (stereo not drawn) |  |  | 2610 |  |  |
| (1R)-1-[3-(1-acenaphthen-1-yl-1,2,3,6-tetrahydro-pyridin-4-yl)-5-isocyano-indol-1-yl]-3-methylamino-propan-2-ol |  | 1820 | 2570 |  |  |
| Fc1ccc2[nH]cc(C3CCN(CC4CCCCCCC4)CC3)c2c1 | 182 | 291 | 1080 |  |  |
| Fc1ccc2[nH]cc(C3CCN(C4Cc5cccc6cccc4c56)CC3)c2c1 (stereo not drawn) | 1890 |  | 507 |  |  |
| OCCn1cc(C2CCN(C3Cc4cccc5cccc3c45)CC2)c2cccnc21 (stereo not drawn) |  | 94.5 | 530 |  |  |
| Cc1cccc2cccc(CN3CCC(c4c[nH]c5ccc(F)cc45)CC3)c12 |  | 1780 | 4710 |  |  |
| Fc1ccc2c(C3=CCN(C4Cc5cccc6cccc4c56)CC3)c[nH]c2c1 (stereo not drawn) |  | 164 |  |  |  |
| (1S)-3-(1-acenaphthen-1-yl-1,2,3,6-tetrahydro-pyridin-4-yl)-5-isocyano-1-oxiranylmethyl-1H-indole |  |  | 1140 |  |  |
| Cc1cccc2cccc(CN3CCC(c4c[nH]c5ncccc45)CC3)c12 |  | 1960 |  |  |  |
| Cc1[nH]c2ccc(Cl)cc2c1C1CCN(Cc2cccc3ccccc23)CC1 | 755 |  | 888 |  |  |
| NCC(O)Cn1cc(C2CCN([C@@H]3Cc4cccc5cccc3c45)CC2)c2ccc(F)cc21 (stereo partly drawn) |  | 62.6 | 765 |  |  |
| Clc1cccc2c(C3CCNCC3)c[nH]c12 |  |  | 256 |  |  |
| (1R)-1-[3-(1-acenaphthen-1-yl-1,2,3,6-tetrahydro-pyridin-4-yl)-5-isocyano-indol-1-yl]-3-amino-propan-2-ol |  | 1650 | 4140 |  |  |
| CNCC(O)Cn1cc(C2CCN([C@@H]3Cc4cccc5cccc3c45)CC2)c2ccc(F)cc21 (stereo partly drawn) |  | 103 | 805 |  |  |
| Clc1ccc2[nH]cc(C3CCN(Cc4ccccc4)CC3)c2c1 | 329 | 1140 | 237 |  |  |

| Compound | IC50 [1] [nM] | IC50 [2] [nM] | IC50 (mu (μ) opioid receptor) [nM] | IC50 [3] [nM] | EC50 (ORL-1 receptor) [nM] |
| --- | --- | --- | --- | --- | --- |
| Clc1cccc2c(C3CCN(CC4CCCCCCC4)CC3)c[nH]c12 | 1170 | 659 | 436 |  |  |
| CN(C)C[C@@H](O)Cn1cc(C2CCN(C3Cc4cccc5cccc3c45)CC2)c2ccc(F)cc21 (stereo partly drawn) |  | 101 | 473 |  |  |
| c1cnc2[nH]cc(C3CCN(CC4CCCCCCC4)CC3)c2c1 | 3890 | 557 | 2000 |  |  |
| Fc1ccc2[nH]cc(C3CCN(Cc4cccc5ccccc45)CC3)c2c1 | 820 | 806 | 502 |  |  |
| Clc1ccc2[nH]cc(C3=CCN(Cc4ccccc4)CC3)c2c1 | 1010 |  | 507 |  |  |
| OC1CN(C2Cc3cccc4cccc2c34)CCC1c1c[nH]c2ncccc12 (mixture of isomers) [Cpd 40, 1-acenaphthen-1-yl-4-(1 H-pyrrolo[2,3-b]pyridin-3-yl)-piperidin-3-ol] |  | 2.5 | 169 |  |  |
| Fc1ccc2c(c1)c(C1CCN(CC3CCCCCCC3)CC1)cn2C[C@H]1CO1 |  | 211 | 671 |  |  |
| Clc1cccc2c(C3CCN(Cc4cccc5ccccc45)CC3)c[nH]c12 | 4080 |  | 443 |  |  |
| Cc1[nH]c2ccc(Cl)cc2c1C1CCN(C2Cc3cccc4cccc2c34)CC1 (stereo not drawn) | 687 | 10.7 | 261 | 2750 | 54600 |
| (1R)-1-[3-(1-acenaphthen-1-yl-1,2,3,6-tetrahydro-pyridin-4-yl)-5-isocyano-indol-1-yl]-3-dimethylamino-propan-2-ol |  |  | 4140 |  |  |
| Clc1cccc2c(C3CCN(C4Cc5cccc6cccc4c56)CC3)c[nH]c12 (stereo not drawn) | 2600 | 57.4 | 264 |  | 100000 |
| CN(C)C[C@@H](O)Cn1cc(C2CCN(CC3CCCCCCC3)CC2)c2cc(F)ccc21 | 1890 | 971 | 2700 |  |  |
| c1cc2c3c(cccc3c1)C(N1CCC(c3c[nH]c4ncccc34)CC1)C2 (stereo not drawn) | 2780 | 4.3 | 390 |  | 4200 |
| Cn1cc(C2CCN(C3Cc4cccc5cccc3c45)CC2)c2cccnc21 (stereo not drawn) |  | 81.7 | 905 |  |  |
| Fc1ccc2c(C3CCN(C4Cc5cccc6cccc4c56)CC3)c[nH]c2c1 (stereo not drawn) |  | 52.9 | 903 |  |  |
| Cc1[nH]c2ccc(Cl)cc2c1C1CCN(Cc2cccc3cccc(C)c23)CC1 | 1570 |  |  |  |  |
| c1cc2c3c(cccc3c1)C(N1CCC(c3cn(C4Cc5cccc6cccc4c56)c4ncccc34)CC1)C2 (stereo not drawn) [Cpd 35, 1-acenaphthen-1-yl-3-(1-acenaphthen-1-yl-piperidin-4-yl)-1H-pyrrolo[2,3-b]pyridine] |  | 81.3 | 1200 |  |  |
| Cc1cccc2cccc(CN3CCC(c4cn(C[C@H]5CO5)c5ccc(F)cc45)CC3)c12 |  | 138 |  |  |  |
